One molecule from ChEMBL document CHEMBL1155848 (2008) can be followed below.

By UniProt entry, the sequences of proteins in these tests, tags left out.
UniProt P35968, whole entry: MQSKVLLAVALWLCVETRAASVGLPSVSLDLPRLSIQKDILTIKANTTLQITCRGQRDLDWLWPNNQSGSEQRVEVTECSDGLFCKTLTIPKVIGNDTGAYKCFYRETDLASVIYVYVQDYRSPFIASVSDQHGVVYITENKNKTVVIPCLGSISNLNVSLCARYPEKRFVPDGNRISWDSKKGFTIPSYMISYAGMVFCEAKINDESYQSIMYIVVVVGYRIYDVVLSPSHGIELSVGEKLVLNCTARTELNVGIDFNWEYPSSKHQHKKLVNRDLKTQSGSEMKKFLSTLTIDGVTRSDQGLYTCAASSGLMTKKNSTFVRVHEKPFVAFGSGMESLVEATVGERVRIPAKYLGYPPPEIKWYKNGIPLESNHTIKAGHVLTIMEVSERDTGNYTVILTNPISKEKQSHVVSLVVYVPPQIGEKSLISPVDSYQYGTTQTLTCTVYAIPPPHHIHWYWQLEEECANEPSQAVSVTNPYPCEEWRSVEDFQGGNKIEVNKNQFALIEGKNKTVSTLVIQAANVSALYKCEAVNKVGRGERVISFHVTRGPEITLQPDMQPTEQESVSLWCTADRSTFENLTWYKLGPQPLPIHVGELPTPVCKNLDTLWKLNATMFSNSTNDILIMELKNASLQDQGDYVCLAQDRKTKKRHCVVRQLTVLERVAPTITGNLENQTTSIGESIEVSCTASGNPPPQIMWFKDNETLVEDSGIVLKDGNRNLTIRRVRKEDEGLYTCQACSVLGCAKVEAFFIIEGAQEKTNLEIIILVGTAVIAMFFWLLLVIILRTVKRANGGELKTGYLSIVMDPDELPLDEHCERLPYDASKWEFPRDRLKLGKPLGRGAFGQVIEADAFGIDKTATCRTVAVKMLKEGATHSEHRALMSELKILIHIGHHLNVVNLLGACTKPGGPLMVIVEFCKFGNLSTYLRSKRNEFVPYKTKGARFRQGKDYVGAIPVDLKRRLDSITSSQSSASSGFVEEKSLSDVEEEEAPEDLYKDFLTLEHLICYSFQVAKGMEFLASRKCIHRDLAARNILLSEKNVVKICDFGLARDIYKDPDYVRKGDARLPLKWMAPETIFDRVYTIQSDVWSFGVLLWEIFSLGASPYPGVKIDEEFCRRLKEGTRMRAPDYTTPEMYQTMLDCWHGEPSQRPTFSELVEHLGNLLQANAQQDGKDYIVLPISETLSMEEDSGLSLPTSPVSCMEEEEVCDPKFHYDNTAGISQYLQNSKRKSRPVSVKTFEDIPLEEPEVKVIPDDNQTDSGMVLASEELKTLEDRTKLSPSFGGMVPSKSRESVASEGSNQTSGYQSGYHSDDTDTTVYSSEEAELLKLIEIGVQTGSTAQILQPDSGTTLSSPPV

The target of this assay is Vascular endothelial growth factor receptor 2 (Homo sapiens, UniProt P35968). The assay can be described thus: Inhibition of VEGFR2.

The IC50 is the midpoint of a concentration-inhibition curve. For `COc1cc(Nc2nccc(Nc3ccc4c(C)n[nH]c4c3)n2)cc(OC)c1OC` [GW612286X], the IC50 is 6.3 nM.
